{"sequences": {"note": "By UniProt entry, the sequences of proteins in these tests, tags left out. Residues count along the entry.", "UniProt P02769, 25-607": "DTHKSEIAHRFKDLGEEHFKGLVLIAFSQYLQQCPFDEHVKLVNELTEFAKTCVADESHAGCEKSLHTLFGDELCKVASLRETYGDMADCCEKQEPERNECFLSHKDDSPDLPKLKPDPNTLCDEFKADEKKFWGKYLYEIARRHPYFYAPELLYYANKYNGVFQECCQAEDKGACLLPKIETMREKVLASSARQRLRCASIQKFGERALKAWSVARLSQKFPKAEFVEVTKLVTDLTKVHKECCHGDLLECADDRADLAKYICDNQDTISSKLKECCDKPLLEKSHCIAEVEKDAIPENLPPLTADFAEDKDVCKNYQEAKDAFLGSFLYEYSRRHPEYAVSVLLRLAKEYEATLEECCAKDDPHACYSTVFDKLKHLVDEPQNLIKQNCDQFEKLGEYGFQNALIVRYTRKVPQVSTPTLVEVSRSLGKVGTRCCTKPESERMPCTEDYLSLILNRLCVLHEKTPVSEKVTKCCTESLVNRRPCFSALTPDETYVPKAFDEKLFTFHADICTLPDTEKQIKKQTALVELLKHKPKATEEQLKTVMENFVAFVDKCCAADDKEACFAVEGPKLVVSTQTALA"}, "source": "patent US6727285B1", "about": "“Use of D-arginine and/or L-arginine to protect the amino groups of biological substances from damage, inactivation, or modification by toxic carbonyls and/or dicarbonyls” (priority 1995, dated 2004)", "assay_type_in_all_cases": "biochemical", "key": {"bovine serum albumin [1]": {"test_system": "bovine serum albumin", "test": "Blocking of methylglyoxal or glyoxal cross-linking (gel formation) of albumin, inventor's tests", "conditions": "arginines: hydrochloride salts and free base forms"}, "bovine serum albumin [2]": {"molecular_target": "T1, bovine serum albumin (Bos taurus, UniProt P02769)", "T1 construct": "HEPES salt, HEPES acid, and bovine serum albumin was obtained from Sigma; purchased Sigma", "conditions": "pH 8 to 11; buffered and unbuffered systems", "protocol": "The magnetic stirrer was set to 217 rpm. The pH was checked at five minutes.\nThe pH was constantly monitored as were the color and fluid characteristics of the mixture. […] The end-point was recorded when a visible non-flowing gel formed in the tube and could not be caused to flow when the tube was inverted at 40 degrees below the horizontal for two minutes."}, "bovine serum albumin [3]": {"molecular_target": "T1, bovine serum albumin", "conditions": "98.6° F.", "protocol": "As described in TABLE #4, 2 cc of 30% bovine serum albumin (BSA) was added by glass pipette (Kimax 1/100) to each of three glass 7 ml. test tubes numbered 1, 2, and 3. 0.4 ml. of 6 molar HEPES buffer was added to tube #1 by glass pipette. 0.5 ml. of 6 molar HEPES buffer was added to test tube #2. 0.3 ml. of 6 molar HEPES buffer was added to tube #3."}, "[4]": {"conditions": "sample 2: 2 ml 30% BSA + 0.5 cc 6 m HEPES (pH 7.35), 0.10 ml of 40% methylglyoxal (0.55 millimole) buffered to pH 7.44, no protectant"}}, "note": "Read-outs that look alike come from different tables or passages of the source.", "data": [{"smiles": "CN(CC(=O)O)C(=N)N", "note": "[creatine]", "values": [{"measurement": "blocking of the cross-linking of albumin by methylglyoxal or glyoxal", "setting": "bovine serum albumin [1]", "value": "do not block"}]}, {"smiles": "N[C@@H](CS)C(=O)O", "note": "[cysteine]", "values": [{"measurement": "blocking of the cross-linking of albumin by methylglyoxal or glyoxal", "setting": "bovine serum albumin [1]", "value": "do not block"}]}, {"smiles": "CC(=O)C=O", "note": "[methylglyoxal]", "values": [{"measurement": "binding of bovine serum albumin", "setting": "bovine serum albumin [2]", "value": "does not bind bovine serum albumin well"}, {"measurement": "FINAL FORM", "setting": "bovine serum albumin [3]; sample 1: 2 ml 30% BSA + 0.4 cc 6 m HEPES (pH 7.40), 1 millimole methylglyoxal (0.18 ml of 40%, pH not adjusted), no protectant, 217 RPM", "value": "FIRM GEL"}, {"measurement": "FINAL FORM", "setting": "bovine serum albumin [3]; [4]", "value": "GEL"}, {"measurement": "time until yellow brown gelatin formed", "setting": "bovine serum albumin [3]; [4]", "value": "pH 7.22 at 5 minutes; 2 hours"}]}]}
